## Melting point values, as collected for the OPERA models

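OPERA's authors assembled the values from existing databases and did not measure them anew. The files give a single number for a compound and property, which may rest on several reports. Method, purity and exact conditions of the single measurements are not given. Where a salt, mixture or single isomer is drawn, the source does not say that exactly this form was tested. Unmarked limits or estimates from the upstream databases cannot be ruled out.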

Melting points are in °C. "n/a" marks a cell with nothing listed here. The databases behind each value are named after "via".

compound	name	melting point (°C)	via
Fc1cc2cccnc2cc1F	6,7-Difluoroquinoline	110	OCHEM
COCCNC(=S)NN	N-(2-Methoxyethyl)hydrazinecarbothioamide	86	OCHEM
O=C(O)CSc1ccc(Br)cc1	(4-Bromo-phenylsulfanyl)-acetic acid	118	OCHEM
Nc1ccccc1C(=O)NC1CCCC1	2-amino-N-cyclopentylbenzamide	175	OCHEM
Nc1ccccc1C(=O)NCc1ccco1	2-amino-N-(furan-2-ylmethyl)benzamide	77	OCHEM
O=C(O)c1ccc(S(=O)(=O)NCC2CCCO2)cc1 (stereo unspecified)	4-{[(Oxolan-2-yl)methyl]sulfamoyl}benzoic acid	170	OCHEM
Nc1cccc(-n2cnnc2)c1	3-(4H-1,2,4-triazol-4-yl)aniline	200	OCHEM
COc1ccc(C(=O)O)cn1	6-Methoxynicotinic acid	173	OCHEM
O=Cc1cn[nH]c1-c1ccc(Cl)cc1	3-(4-Chlorophenyl)-1H-pyrazole-4-carbaldehyde	140	OCHEM
COc1ccc(-c2csc(C)n2)cc1	4-(4-Methoxy-phenyl)-2-methyl-thiazole	56	OCHEM
Cc1ccccc1Nc1n[nH]c(=S)s1	n/a	231	OCHEM
CN(C)CCCNS(=O)(=O)c1ccc(Cl)c([N+](=O)[O-])c1	n/a	99	OCHEM
Nc1cccc(-c2nnco2)c1	3-(1,3,4-Oxadiazol-2-yl)aniline	67	OCHEM
N#Cc1cnoc1N	5-Aminoisoxazole-4-carbonitrile	144	OCHEM
O=C(O)Cc1ccc(-n2cccn2)cc1	[4-(1H-Pyrazol-1-yl)phenyl]acetic acid	131	OCHEM
O=Cc1sc(N2CCCCC2)nc1Cl	4-Chloro-2-(piperidin-1-yl)-1,3-thiazole-5-carbaldehyde	90	OCHEM
CC(=O)Nc1sc2c(c1C(=O)O)CCCC2	n/a	211	OCHEM
Nc1ccc(S(=O)(=O)NCc2ccco2)cc1	4-amino-N-(furan-2-ylmethyl)benzenesulfonamide	181	OCHEM
Cc1ccc(NNc2ccc(C)cc2)cc1	1,2-Bis(4-methylphenyl)hydrazine	135	OCHEM
CC(=O)NCCc1ccc(C(=O)O)cc1	4-[2-(acetylamino)ethyl]benzoic acid	176	OCHEM
O=C1NC2(CCCCC2)NC2=C1CCCC2	n/a	194	OCHEM
Cc1nn(CC(=O)O)c(C)c1[N+](=O)[O-]	(3,5-dimethyl-4-nitro-1H-pyrazol-1-yl)acetic acid	180	OCHEM
O=C(O)Cc1csc(-c2ccc(F)cc2)n1	[2-(4-fluorophenyl)-1,3-thiazol-4-yl]acetic acid	130	OCHEM
Nc1cc(C(=O)Nc2ccccc2)ccc1Cl	3-Amino-4-chloro-N-phenylbenzamide	200	OCHEM
CCOC(=O)c1sc(N)c(C#N)c1C	ethyl 5-amino-4-cyano-3-methylthiophene-2-carboxylate	213	OCHEM
O=C(O)Cc1cc(=O)[nH]c(=O)[nH]1	n/a	325	OCHEM
CC(C)NS(=O)(=O)c1cccc(CN)c1	3-(Aminomethyl)-N-(propan-2-yl)benzene-1-sulfonamide	99	OCHEM
COC(=O)C(=O)CC(=O)c1ccc(F)cc1	methyl 4-(4-fluorophenyl)-2,4-dioxobutanoate	130	OCHEM
CCOc1ccc(OC(C)(C)C(=O)O)cc1	2-(4-ethoxyphenoxy)-2-methylpropanoic acid	67	OCHEM
Cc1ccccc1-n1[nH]nnc1=S	1-o-Tolyl-1H-tetrazole-5-thiol	66	OCHEM
O=C(O)c1ccc2c(=O)n3c(nc2c1)CCCCC3	n/a	277	OCHEM
CC(C)CCCCCCCOC(=O)CC(C(=O)OCCCCCCCC(C)C)S(=O)(=O)[O-].[Na+] (stereo unspecified)	Sodium 1,4-diisodecyl sulphonatosuccinate	197	eChemPortal
CCOc1ccc(C(=O)O)cc1[N+](=O)[O-]	4-ethoxy-3-nitrobenzoic acid	202	OCHEM
CC(=O)NC12CC3CC(C1)CC(C(=O)O)(C3)C2	3-Acetylamino-adamantane-1-carboxylic acid	259	OCHEM
O=c1[nH]c(CCl)nc2scc(-c3ccc(Cl)cc3)c12	n/a	125	OCHEM
Cc1ccc(Nc2cc(C(=O)O)c(Nc3ccc(C)cc3)cc2C(=O)O)cc1	2,5-Bis(p-toluidino)terephthalic acid	326	eChemPortal
CC(C)CCNC(N)=O	Urea, isopentyl-	44	OCHEM
C=CCn1c(-c2ccoc2C)n[nH]c1=S	4-allyl-5-(2-methyl-3-furyl)-4H-1,2,4-triazole-3-thiol	294	OCHEM
COc1cc(-c2nnc(CCl)o2)cc(OC)c1OC	2-(Chloromethyl)-5-(3,4,5-trimethoxyphenyl)-1,3,4-oxadiazole	122	OCHEM
Cc1cccc(F)c1C(=O)O	2-Fluoro-6-methylbenzoic acid	115	OCHEM

The 3 highest values of melting point among the entries above:

| compound | name | melting point (°C) | via |
|---|---|---|---|
| Cc1ccc(Nc2cc(C(=O)O)c(Nc3ccc(C)cc3)cc2C(=O)O)cc1 | 2,5-Bis(p-toluidino)terephthalic acid | 326 | eChemPortal |
| O=C(O)Cc1cc(=O)[nH]c(=O)[nH]1 | n/a | 325 | OCHEM |
| C=CCn1c(-c2ccoc2C)n[nH]c1=S | 4-allyl-5-(2-methyl-3-furyl)-4H-1,2,4-triazole-3-thiol | 294 | OCHEM |

From the experimental data distributed with OPERA 2.9.